What was measured:
[1] = system: pooled normal human plasma; assay: Ex vivo coagulation assay (APTT); conditions: normal citrated human plasma; FIG. 3
α-thrombin [2] = target: T1, α-thrombin (Homo sapiens, UniProt P00734); assay: Thrombin-induced clotting of purified fibrinogen; conditions: preincubation with α-thrombin up to 60 minutes before fibrinogen
washed human platelets = assay: Thrombin-induced aggregation in washed human platelets
[3] = system: FeCl3 Model of Thrombosis in Rats; assay: Rat model of FeCl3-induced platelet-dependent arterial thrombosis; conditions: for Incidence of Occlusion: occluded/total animals
Rat Venous Stasis Model = assay: Venous stasis in rats (thromboplastin plus stasis, inferior vena cava); conditions: for % Clot: mean ± S.E.M.
α-thrombin [4] = target: T1, α-thrombin; assay: Amidolytic thrombin assay (inhibition constant Ki); conditions: for kinetics / mechanism of thrombin inhibition: in words
[5] = 0.1 mg/kg i.v. bolus + 10 μg/kg/min i.v. infusion
[6] = 0.1 mg/kg i.v. bolus + 20 μg/kg/min i.v. infusion
[7] = 0.1 mg/kg i.v. bolus + 40 μg/kg/min i.v. infusion

CCCC(CCC)C(=O)N[C@@H](CC(=O)O)C(=O)N1CCC[C@H]1C(=O)N[C@@H](CCCNC(=N)N)C(=O)C(=O)NCC(=O)NCC(=O)NCC(=O)NCC(=O)NCC(=O)N[C@@H](CC(N)=O)C(=O)NCC(=O)N[C@@H](CC(=O)O)C(=O)N[C@@H](Cc1ccccc1)C(=O)N[C@@H](CCC(=O)O)C(=O)N[C@@H](CCC(=O)O)C(=O)N[C@H](C(=O)N1CCC[C@H]1C(=O)N[C@@H](CCC(=O)O)C(=O)N[C@@H](Cc1ccc(O)cc1)C(=O)N[C@@H](CC(C)C)C(=O)O)[C@@H](C)CC
prolongation of activated partial thromboplastin time (APTT) [1]: prolonged the APTT in a dose dependent manner
proteolytic inactivation by thrombin upon prolonged incubation (α-thrombin [2]): not proteolytically inactivated by thrombin
persistence of inhibition of aggregation over the 15 minute course of the assay (washed human platelets; 20nM (compound 8), same or higher concentrations (Hirulog-1), FIG. 4): stable with no recovery of aggregation
IC50 (washed human platelets; α-thrombin 2 nM, extent of aggregation over 1 minute after thrombin, mean ± standard deviation, three determinations): 25 nM
% Clot ([3]; 0.1 mg/kg i.v. bolus + 5 μg/kg/min i.v. infusion, mean ± S.E.M., segments with detectable thrombus): 66.14 ± 3.83%
Incidence of Occlusion ([3]; 0.1 mg/kg i.v. bolus + 5 μg/kg/min i.v. infusion): 5/6
% Clot ([3]; 0.1 mg/kg i.v. bolus + 10 μg/kg/min i.v. infusion, mean ± S.E.M., segments with detectable thrombus): 42.28 ± 12.6%
Incidence of Occlusion [3, 5]: 4/6
% Clot ([3]; 0.1 mg/kg i.v. bolus + 20 μg/kg/min i.v. infusion, mean ± S.E.M., segments with detectable thrombus): 46.13 ± 6.75%
Incidence of Occlusion [3, 6]: 3/6
% Clot [3, 7]: 0%
Incidence of Occlusion [3, 7]: 0/5
% Clot (Rat Venous Stasis Model; [5]): 22.03 ± 3.6%
% Clot (Rat Venous Stasis Model; [6]): 8.25 ± 5.1%
% Clot (Rat Venous Stasis Model; [7]): 0%
effect on venous thrombus formation induced by stasis and thromboplastin (Rat Venous Stasis Model; summary in words): very efficacious in dose-dependently preventing venous thrombus formation
fold difference in Ki between compound 8 and 9 (α-thrombin [4]): 23,000 fold
Ki (α-thrombin [4]; chromogenic substrate Pefachrome t-PA, HBSA pH 7.5, slow-binding (kon/koff) or Dixon analysis): 0.0019 nM
fold more potent than Hirulog-1 (compound 25) (α-thrombin [4]; direct comparison under the same assay conditions): 230 fold
kinetics / mechanism of thrombin inhibition (α-thrombin [4]): slow binding or slow-tight binding kinetics
kinetics / mechanism of thrombin inhibition (α-thrombin [4]; listed as compound 8): predominantly one-step competitive, tight-binding mechanism

Reference: patent publication US5656600A, “α-ketoamide derivatives as inhibitors of thrombosis” (Corvas International, Inc., priority 1993, dated 1997)
